Values quoted from earlier work in PMC9318694 (Molecules, 2022).

Sequences of proteins named here, by UniProt entry; tags and fusion partners are left off. A change or cut given only in a name is not applied to a line headed by its entry.
UniProt P14416, whole entry: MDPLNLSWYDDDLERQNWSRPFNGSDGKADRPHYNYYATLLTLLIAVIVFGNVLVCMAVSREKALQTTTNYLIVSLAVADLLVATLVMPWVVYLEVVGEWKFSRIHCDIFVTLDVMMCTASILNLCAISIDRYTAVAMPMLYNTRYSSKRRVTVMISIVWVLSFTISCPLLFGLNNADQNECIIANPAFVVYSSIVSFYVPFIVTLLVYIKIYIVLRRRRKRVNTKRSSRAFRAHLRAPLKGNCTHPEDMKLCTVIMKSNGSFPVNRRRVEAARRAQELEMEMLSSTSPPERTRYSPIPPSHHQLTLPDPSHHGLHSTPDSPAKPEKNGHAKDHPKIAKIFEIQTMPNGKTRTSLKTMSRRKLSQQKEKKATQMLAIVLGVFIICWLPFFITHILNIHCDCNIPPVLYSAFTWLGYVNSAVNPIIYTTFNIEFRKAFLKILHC

Biological target: D2R (Homo sapiens, UniProt P14416)
Details: Table S1; data set of actives, radio-ligand binding assays; ref ChEMBL, [50]-[70]; cited from earlier work

Oc1ccc2c(c1)O[C@@H](CNCc1ccc(I)cc1)CC2 [SC20, (R)-2-(((4-iodobenzyl)amino)methyl)chroman-7-ol]
Ki: 3.79 nM
